Values quoted from earlier work, collected in patent US20150023920A1, “NOVEL COMPOSITIONS AND METHODS FOR PREVENTING OR TREATING CANCER METASTASIS” (Drexel University, priority 2012, published 2015).

Legend:
IL-1β [1] = target: T1, IL-1β (Homo sapiens, UniProt P01584); conditions: cited from earlier work
IL-1β [2] = target: T1, IL-1β; conditions: cited from earlier work; remark: listed apart in the source

XOMA-052: potent anti-IL-1β humanized neutralizing antibody
binding affinity for human IL-1β (IL-1β [1]): 300 femtomolar | in vitro potency (IL-1β [2]): low picomolar range
